{"source": "PubChem BioAssay AID795", "about": "(NMMLSC, 2007)", "note": "Only a part is listed here, and it is no random draw. Some tests of the compounds listed are not included; inactive here does not mean inactive elsewhere. Calls of active or inactive are those of the source.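 The calls were made as follows: active = side scatter shift above 30%; inactive = the rest.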"}
{"assay": "activators of LNCaP prostate cell differentiation, primary screen, flow cytometry side scatter (AID 795);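 also: androgen-responsive LNCaP prostate cancer cells in charcoal-stripped serum medium; percent of cells past a gate set so DMSO wells show 10% shift; higher shift means more granular cells and more differentiation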", "settings": "4 d, at 10 µM, hits give high values"}
{"compound": "O=C(OC1CN2CCC1CC2)C(CO)(c1ccccc1)c1ccccc1", "note": "(stereo unspecified)", "side scatter shift": "inactive: 8%"}
